# Test system: EGF-induced HER2 and MAPK autophosphorylation
# Assay: Western blotting of EGF-induced ErbB signaling and intracellular PRL in HER2CA GH3 cells
# Assay type: cell-based, rat
compound,measurement,value
COc1cc2ncnc(Nc3ccc(F)c(Cl)c3)c2cc1OCCCN1CCOCC1 [gefitinib],intracellular PRL levels,not by gefitinib

# Source: patent US20120308567A1, “USE OF TYROSINE KINASE INHIBITORS FOR TREATMENT OF PROLACTINOMA” (CEDARS-SINAI MEDICAL CENTER, priority 2010, published 2012)
